# PMC9569420 (Communications Biology, 2022)
# The chains behind the UniProt entries cited, without tags or fusion partners. Where a name states a change or a piece, a line headed by the entry shows the natural chain unless it says otherwise. Residues count along the entry.
# UniProt Q13882, whole entry: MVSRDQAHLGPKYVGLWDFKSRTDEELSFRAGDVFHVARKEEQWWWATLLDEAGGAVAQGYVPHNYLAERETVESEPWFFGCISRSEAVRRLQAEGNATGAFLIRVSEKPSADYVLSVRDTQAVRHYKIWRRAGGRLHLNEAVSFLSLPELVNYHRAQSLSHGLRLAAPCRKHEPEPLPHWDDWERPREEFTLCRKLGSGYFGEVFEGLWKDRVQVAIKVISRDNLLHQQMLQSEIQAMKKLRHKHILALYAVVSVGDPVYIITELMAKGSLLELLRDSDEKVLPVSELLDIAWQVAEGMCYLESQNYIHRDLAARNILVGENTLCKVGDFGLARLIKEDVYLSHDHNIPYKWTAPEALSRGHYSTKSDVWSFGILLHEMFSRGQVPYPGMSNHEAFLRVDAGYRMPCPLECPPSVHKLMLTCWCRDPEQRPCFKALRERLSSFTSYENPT
# UniProt Q00536: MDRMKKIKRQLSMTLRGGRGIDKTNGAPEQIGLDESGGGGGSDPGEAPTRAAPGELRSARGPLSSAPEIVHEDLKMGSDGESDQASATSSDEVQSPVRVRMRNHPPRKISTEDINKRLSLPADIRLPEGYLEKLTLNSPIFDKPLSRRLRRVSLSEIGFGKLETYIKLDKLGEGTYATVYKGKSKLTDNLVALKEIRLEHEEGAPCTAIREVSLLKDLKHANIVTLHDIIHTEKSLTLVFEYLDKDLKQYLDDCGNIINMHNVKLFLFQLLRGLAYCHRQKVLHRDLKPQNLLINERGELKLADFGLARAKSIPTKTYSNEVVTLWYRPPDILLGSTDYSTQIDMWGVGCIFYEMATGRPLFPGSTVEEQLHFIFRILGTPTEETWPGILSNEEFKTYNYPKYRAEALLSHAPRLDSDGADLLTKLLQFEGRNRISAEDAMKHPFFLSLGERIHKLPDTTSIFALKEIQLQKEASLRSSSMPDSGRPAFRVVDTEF
# UniProt Q00534, whole entry: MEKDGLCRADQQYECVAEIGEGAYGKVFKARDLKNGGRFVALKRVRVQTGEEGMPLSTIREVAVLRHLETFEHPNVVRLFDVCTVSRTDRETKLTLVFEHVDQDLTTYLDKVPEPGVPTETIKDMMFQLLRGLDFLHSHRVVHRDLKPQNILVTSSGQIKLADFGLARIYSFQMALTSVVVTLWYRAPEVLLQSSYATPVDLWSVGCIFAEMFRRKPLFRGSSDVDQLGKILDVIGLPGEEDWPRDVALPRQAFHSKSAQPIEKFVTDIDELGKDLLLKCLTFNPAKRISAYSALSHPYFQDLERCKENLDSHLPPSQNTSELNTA
# UniProt P21709, 26-976: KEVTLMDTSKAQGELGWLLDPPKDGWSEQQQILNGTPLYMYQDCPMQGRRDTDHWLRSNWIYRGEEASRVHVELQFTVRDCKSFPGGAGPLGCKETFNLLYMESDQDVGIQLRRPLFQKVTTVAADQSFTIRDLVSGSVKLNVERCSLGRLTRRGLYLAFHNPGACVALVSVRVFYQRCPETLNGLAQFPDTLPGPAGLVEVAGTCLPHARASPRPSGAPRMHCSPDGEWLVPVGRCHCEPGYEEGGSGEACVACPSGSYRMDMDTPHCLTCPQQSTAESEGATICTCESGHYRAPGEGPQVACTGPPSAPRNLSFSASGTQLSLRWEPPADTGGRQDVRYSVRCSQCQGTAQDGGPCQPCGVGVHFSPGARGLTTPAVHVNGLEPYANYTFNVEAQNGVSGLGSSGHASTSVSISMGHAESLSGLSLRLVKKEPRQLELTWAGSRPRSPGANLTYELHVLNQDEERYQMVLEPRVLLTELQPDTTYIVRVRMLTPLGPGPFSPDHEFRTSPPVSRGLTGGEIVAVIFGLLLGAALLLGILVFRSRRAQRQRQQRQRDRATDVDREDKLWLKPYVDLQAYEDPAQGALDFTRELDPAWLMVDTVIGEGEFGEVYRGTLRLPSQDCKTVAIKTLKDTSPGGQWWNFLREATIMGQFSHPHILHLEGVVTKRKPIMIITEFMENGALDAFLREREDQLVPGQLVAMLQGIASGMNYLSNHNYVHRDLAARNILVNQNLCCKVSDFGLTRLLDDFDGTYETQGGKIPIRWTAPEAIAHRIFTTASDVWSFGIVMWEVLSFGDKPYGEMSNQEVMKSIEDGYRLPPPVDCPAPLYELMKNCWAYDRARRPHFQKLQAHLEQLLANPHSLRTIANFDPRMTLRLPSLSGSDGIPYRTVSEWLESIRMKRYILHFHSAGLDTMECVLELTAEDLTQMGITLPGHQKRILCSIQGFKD
# UniProt Q8TD08: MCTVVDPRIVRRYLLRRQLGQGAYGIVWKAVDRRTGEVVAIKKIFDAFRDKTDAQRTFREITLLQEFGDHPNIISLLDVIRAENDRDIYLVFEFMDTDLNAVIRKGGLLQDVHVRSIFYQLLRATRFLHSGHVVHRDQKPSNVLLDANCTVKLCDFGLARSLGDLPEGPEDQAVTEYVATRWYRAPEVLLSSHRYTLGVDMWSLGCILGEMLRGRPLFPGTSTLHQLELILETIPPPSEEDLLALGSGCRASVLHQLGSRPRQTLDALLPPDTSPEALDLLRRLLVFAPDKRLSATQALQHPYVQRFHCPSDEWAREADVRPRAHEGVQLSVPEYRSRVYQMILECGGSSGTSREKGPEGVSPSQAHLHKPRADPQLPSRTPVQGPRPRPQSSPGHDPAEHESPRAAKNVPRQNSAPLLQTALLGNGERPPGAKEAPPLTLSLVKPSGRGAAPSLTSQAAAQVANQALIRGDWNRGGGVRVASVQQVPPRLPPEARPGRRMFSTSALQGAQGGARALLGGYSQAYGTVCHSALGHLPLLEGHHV
# UniProt P49841: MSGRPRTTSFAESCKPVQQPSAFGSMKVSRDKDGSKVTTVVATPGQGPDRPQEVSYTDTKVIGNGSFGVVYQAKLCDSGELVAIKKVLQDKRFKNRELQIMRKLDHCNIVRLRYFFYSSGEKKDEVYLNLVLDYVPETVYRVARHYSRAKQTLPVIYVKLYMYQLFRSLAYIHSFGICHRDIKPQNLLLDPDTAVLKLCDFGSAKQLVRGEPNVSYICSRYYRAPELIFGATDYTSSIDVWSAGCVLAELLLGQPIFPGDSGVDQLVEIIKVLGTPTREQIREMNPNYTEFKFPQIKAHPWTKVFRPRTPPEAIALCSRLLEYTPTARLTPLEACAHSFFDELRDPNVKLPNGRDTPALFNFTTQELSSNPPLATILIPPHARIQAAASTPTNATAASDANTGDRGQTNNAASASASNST
# UniProt Q7KZI7, 1-725 isoform Q7KZI7-4: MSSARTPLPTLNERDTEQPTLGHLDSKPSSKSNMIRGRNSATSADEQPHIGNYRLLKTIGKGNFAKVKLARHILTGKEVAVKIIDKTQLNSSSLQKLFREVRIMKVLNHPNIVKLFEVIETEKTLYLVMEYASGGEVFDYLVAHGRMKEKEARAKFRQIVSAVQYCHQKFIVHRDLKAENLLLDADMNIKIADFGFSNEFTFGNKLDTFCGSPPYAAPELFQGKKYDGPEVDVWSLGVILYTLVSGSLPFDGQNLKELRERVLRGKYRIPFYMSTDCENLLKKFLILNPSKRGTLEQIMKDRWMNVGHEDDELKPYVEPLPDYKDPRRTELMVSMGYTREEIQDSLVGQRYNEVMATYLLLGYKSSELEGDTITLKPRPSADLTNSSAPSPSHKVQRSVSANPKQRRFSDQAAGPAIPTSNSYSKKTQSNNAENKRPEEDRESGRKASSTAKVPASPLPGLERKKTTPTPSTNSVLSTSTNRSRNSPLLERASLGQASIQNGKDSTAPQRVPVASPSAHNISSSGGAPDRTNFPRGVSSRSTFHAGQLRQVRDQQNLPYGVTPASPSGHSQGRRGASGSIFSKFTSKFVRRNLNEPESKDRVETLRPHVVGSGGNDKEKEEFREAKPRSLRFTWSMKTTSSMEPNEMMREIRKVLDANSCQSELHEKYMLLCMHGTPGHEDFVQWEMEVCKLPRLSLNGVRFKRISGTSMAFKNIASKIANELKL
# UniProt O14733: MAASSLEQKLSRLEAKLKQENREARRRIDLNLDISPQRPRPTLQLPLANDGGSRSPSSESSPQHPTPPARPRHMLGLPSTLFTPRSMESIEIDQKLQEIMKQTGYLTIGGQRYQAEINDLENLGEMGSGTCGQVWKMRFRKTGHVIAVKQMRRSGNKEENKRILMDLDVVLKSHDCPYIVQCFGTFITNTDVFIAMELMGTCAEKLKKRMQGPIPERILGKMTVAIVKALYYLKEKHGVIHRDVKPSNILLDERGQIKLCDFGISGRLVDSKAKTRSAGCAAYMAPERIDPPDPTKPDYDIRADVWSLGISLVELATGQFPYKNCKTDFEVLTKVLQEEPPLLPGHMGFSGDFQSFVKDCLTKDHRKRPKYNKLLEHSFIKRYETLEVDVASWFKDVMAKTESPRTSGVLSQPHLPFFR
# UniProt Q9P286: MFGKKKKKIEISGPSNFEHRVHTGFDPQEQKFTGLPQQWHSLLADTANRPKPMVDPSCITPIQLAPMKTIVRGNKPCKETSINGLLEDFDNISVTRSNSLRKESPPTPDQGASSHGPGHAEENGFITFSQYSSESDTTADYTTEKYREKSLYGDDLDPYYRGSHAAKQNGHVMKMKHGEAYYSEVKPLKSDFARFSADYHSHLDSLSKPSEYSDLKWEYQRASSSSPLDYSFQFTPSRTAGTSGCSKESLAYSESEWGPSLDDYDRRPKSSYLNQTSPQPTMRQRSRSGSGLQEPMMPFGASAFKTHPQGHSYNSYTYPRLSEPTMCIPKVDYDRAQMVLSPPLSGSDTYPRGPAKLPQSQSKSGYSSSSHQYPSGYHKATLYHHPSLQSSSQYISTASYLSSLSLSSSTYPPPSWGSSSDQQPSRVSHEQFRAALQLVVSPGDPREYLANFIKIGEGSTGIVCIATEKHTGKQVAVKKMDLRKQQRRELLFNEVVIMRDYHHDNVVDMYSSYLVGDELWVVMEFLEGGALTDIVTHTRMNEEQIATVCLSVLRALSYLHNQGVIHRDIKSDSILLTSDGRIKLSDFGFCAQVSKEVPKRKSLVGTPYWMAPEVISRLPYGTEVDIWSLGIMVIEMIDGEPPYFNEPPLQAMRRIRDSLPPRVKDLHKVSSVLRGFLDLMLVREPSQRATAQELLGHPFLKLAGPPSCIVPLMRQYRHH
# UniProt Q56UN5: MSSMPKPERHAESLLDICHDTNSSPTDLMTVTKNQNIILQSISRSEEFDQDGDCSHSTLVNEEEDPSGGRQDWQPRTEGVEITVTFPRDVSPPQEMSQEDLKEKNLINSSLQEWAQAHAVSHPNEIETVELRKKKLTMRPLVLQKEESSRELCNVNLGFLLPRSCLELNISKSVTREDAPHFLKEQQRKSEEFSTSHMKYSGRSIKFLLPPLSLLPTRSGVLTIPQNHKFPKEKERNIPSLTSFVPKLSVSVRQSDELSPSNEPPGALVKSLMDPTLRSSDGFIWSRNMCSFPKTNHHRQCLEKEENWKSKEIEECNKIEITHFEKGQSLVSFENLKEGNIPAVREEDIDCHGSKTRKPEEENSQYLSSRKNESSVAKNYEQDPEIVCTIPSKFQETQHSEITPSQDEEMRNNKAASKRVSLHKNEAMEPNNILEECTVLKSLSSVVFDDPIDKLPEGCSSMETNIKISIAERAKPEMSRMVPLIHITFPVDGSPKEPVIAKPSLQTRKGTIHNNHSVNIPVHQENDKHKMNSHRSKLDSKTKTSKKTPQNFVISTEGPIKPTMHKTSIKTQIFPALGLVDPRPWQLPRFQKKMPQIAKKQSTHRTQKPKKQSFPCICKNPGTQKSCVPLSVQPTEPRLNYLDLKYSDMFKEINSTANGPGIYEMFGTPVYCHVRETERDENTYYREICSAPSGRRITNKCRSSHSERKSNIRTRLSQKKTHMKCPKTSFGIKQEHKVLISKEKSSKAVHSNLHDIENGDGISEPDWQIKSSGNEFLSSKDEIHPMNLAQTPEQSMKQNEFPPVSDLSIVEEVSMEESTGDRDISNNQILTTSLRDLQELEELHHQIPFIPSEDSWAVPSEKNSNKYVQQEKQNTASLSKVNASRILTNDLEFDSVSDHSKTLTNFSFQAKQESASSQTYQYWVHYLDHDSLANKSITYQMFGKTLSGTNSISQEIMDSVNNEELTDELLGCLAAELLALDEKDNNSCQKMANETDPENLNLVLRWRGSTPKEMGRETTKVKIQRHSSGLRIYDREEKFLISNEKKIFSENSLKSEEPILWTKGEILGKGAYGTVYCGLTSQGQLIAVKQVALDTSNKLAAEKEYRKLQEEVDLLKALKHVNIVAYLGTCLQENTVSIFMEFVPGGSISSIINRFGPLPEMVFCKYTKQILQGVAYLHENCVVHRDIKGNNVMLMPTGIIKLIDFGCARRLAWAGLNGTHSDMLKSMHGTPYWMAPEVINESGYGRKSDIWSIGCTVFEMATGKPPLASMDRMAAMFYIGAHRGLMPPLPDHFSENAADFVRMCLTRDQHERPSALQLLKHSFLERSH
# Columns and labels:
# BRK = target: T1, BRK (Homo sapiens, UniProt Q13882); assay: HotSpot kinase assay; type: biochemical; conditions: 10µM
# T1 construct: purchased Reaction Biology Corporation
# BRSK2 = target: T2, BRSK2 (Homo sapiens, UniProt Q8IWQ3); assay: HotSpot kinase assay; type: biochemical; conditions: 10µM
# T2 construct: purchased Reaction Biology Corporation
# CDK16/cyclin Y (PCTAIRE) = target: T3, CDK16/cyclin Y (PCTAIRE) (Homo sapiens, UniProt Q00536); assay: HotSpot kinase assay; type: biochemical; conditions: 10µM
# T3 construct: purchased Reaction Biology Corporation
# CDK6/cyclin D3 = target: T4, CDK6/cyclin D3 (Homo sapiens, UniProt Q00534); assay: HotSpot kinase assay; type: biochemical; conditions: 10µM
# T4 construct: purchased Reaction Biology Corporation
# DDR2 = target: T5, DDR2 (Homo sapiens, UniProt Q16832); assay: HotSpot kinase assay; type: biochemical; conditions: 10µM
# T5 construct: purchased Reaction Biology Corporation
# EGFR = target: T6, EGFR (Homo sapiens, UniProt P00533); type: biochemical; conditions: 10µM
# T6 construct: purchased Reaction Biology Corporation
# EPHA1 = target: T7, EPHA1 (Homo sapiens, UniProt P21709); assay: HotSpot kinase assay; type: biochemical; conditions: 10µM
# T7 construct: purchased Reaction Biology Corporation
# ERK7/MAPK15 = target: T8, ERK7/MAPK15 (Homo sapiens, UniProt Q8TD08); assay: HotSpot kinase assay; type: biochemical; conditions: 10µM
# T8 construct: purchased Reaction Biology Corporation
# GSK3b = target: T9, GSK3b (Homo sapiens, UniProt P49841); type: biochemical; conditions: 10µM
# T9 construct: purchased Reaction Biology Corporation
# IKKa/CHUK = target: T10, IKKa/CHUK (Homo sapiens, UniProt O15111); assay: HotSpot kinase assay; type: biochemical; conditions: 10µM
# T10 construct: purchased Reaction Biology Corporation
# IKKb/IKBKB = target: T11, IKKb/IKBKB (Homo sapiens, UniProt O14920); assay: HotSpot kinase assay; type: biochemical; conditions: 10µM
# T11 construct: purchased Reaction Biology Corporation
# IRAK1 = target: T12, IRAK1 (Homo sapiens, UniProt P51617); assay: HotSpot kinase assay; type: biochemical; conditions: 10µM
# T12 construct: purchased Reaction Biology Corporation
# LCK = target: T13, LCK (Homo sapiens, UniProt P06239); assay: HotSpot kinase assay; type: biochemical; conditions: 10µM
# T13 construct: purchased Reaction Biology Corporation
# LCK2/ICK = target: T14, LCK2/ICK (Homo sapiens, UniProt Q9UPZ9); assay: HotSpot kinase assay; type: biochemical; conditions: 10µM
# T14 construct: purchased Reaction Biology Corporation
# MAPKAPK5/PRAK = target: T15, MAPKAPK5/PRAK (Homo sapiens, UniProt Q8IW41); assay: HotSpot kinase assay; type: biochemical; conditions: 10µM
# T15 construct: purchased Reaction Biology Corporation
# MARK2/PAR-1Ba = target: T16, MARK2/PAR-1Ba (Homo sapiens, UniProt Q7KZI7); assay: HotSpot kinase assay; type: biochemical; conditions: 10µM
# T16 construct: purchased Reaction Biology Corporation
# MINK/MINK1 = target: T17, MINK/MINK1 (Homo sapiens, UniProt Q8N4C8); assay: HotSpot kinase assay; type: biochemical; conditions: 10µM
# T17 construct: purchased Reaction Biology Corporation
# MKK7 = target: T18, MKK7 (Homo sapiens, UniProt O14733); assay: HotSpot kinase assay; type: biochemical; conditions: 10µM
# T18 construct: purchased Reaction Biology Corporation
# MLCK/MYLK = target: T19, MLCK/MYLK (Homo sapiens, UniProt Q15746); assay: HotSpot kinase assay; type: biochemical; conditions: 10µM
# T19 construct: purchased Reaction Biology Corporation
# MRCKa/CDC42BPA = target: T20, MRCKa/CDC42BPA (Homo sapiens, UniProt Q5VT25); assay: HotSpot kinase assay; type: biochemical; conditions: 10µM
# T20 construct: purchased Reaction Biology Corporation
# NEK1 = target: T21, NEK1 (Homo sapiens, UniProt Q96PY6); assay: HotSpot kinase assay; type: biochemical; conditions: 10µM
# T21 construct: purchased Reaction Biology Corporation
# PAK5 = target: T22, PAK5 (Homo sapiens, UniProt Q9P286); assay: HotSpot kinase assay; type: biochemical; conditions: 10µM
# T22 construct: purchased Reaction Biology Corporation
# PASK = target: T23, PASK (Homo sapiens, UniProt Q96RG2); assay: HotSpot kinase assay; type: biochemical; conditions: 10µM
# T23 construct: purchased Reaction Biology Corporation
# PKCepsilon = target: T24, PKCepsilon (Homo sapiens, UniProt Q02156); assay: HotSpot kinase assay; type: biochemical; conditions: 10µM
# T24 construct: purchased Reaction Biology Corporation
# PKG1a = target: T25, PKG1a (Homo sapiens, UniProt Q13976); assay: HotSpot kinase assay; type: biochemical; conditions: 10µM
# T25 construct: purchased Reaction Biology Corporation
# PKG2/PRKG2 = target: T26, PKG2/PRKG2 (Homo sapiens, UniProt Q13237); assay: HotSpot kinase assay; type: biochemical; conditions: 10µM
# T26 construct: purchased Reaction Biology Corporation
# PLK4/SAK = target: T27, PLK4/SAK (Homo sapiens, UniProt O00444); assay: HotSpot kinase assay; type: biochemical; conditions: 10µM
# T27 construct: purchased Reaction Biology Corporation
# RIPK2 = target: T28, RIPK2 (Homo sapiens, UniProt O43353); assay: HotSpot kinase assay; type: biochemical; conditions: 10µM
# T28 construct: purchased Reaction Biology Corporation
# ROS/ROS1 = target: T29, ROS/ROS1 (Homo sapiens, UniProt P08922); assay: HotSpot kinase assay; type: biochemical; conditions: 10µM
# T29 construct: purchased Reaction Biology Corporation
# SRMS = target: T30, SRMS (Homo sapiens, UniProt Q9H3Y6); assay: HotSpot kinase assay; type: biochemical; conditions: 10µM
# T30 construct: purchased Reaction Biology Corporation
# STK33 = target: T31, STK33 (Homo sapiens, UniProt Q9BYT3); assay: HotSpot kinase assay; type: biochemical; conditions: 10µM
# T31 construct: purchased Reaction Biology Corporation
# TESK2 = target: T32, TESK2 (Homo sapiens, UniProt Q96S53); assay: HotSpot kinase assay; type: biochemical; conditions: 10µM
# T32 construct: purchased Reaction Biology Corporation
# TIE2/TEK = target: T33, TIE2/TEK (Homo sapiens, UniProt Q02763); assay: HotSpot kinase assay; type: biochemical; conditions: 10µM
# T33 construct: purchased Reaction Biology Corporation
# VRK1 = target: T34, VRK1 (Homo sapiens, UniProt Q99986); assay: HotSpot kinase assay; type: biochemical; conditions: 10µM
# T34 construct: purchased Reaction Biology Corporation
# YSK4/MAP3K19 = target: T35, YSK4/MAP3K19 (Homo sapiens, UniProt Q56UN5); assay: HotSpot kinase assay; type: biochemical; conditions: 10µM
# T35 construct: purchased Reaction Biology Corporation
# AMPK (A1/B2/G3) = target: T36, AMPK (A1/B2/G3) (Homo sapiens, UniProt Q13131); assay: HotSpot kinase assay; type: biochemical; conditions: 10µM
# T36 construct: purchased Reaction Biology Corporation
# AMPK (A2/B1/G3) = target: T37, AMPK (A2/B1/G3) (Homo sapiens, UniProt P54646); assay: HotSpot kinase assay; type: biochemical; conditions: 10µM
# T37 construct: purchased Reaction Biology Corporation
# AMPK(A1/B2/G1) = target: T38, AMPK(A1/B2/G1) (Homo sapiens, UniProt Q13131); assay: HotSpot kinase assay; type: biochemical; conditions: 10µM
# T38 construct: purchased Reaction Biology Corporation
# PDK2/PDHK2 = target: T39, PDK2/PDHK2 (Homo sapiens, UniProt Q15119); assay: HotSpot kinase assay; type: biochemical; conditions: 10µM
# T39 construct: purchased Reaction Biology Corporation
# PDK3/PDHK3 = target: T40, PDK3/PDHK3 (Homo sapiens, UniProt Q15120); assay: HotSpot kinase assay; type: biochemical; conditions: 10µM
# T40 construct: purchased Reaction Biology Corporation
# CDK9/cyclin K [1] = target: T41, CDK9/cyclin K (Homo sapiens, UniProt P50750); conditions: 10µM
# CDK9/cyclin K [2] = target: T41, CDK9/cyclin K; assay: biochemical; conditions: read-out: % Enzyme Activity (relative to DMSO controls), 10µM
smiles,measurement,setting,value
CO[C@@H]1[C@H](N(C)C(=O)CCC(=O)NCc2cn(CCCS(=O)(=O)O)nn2)C[C@H]2O[C@]1(C)n1c3ccccc3c3c4c(c5c6ccccc6n2c5c31)C(=O)NC4 [CIMSS],% Enzyme Activity (relative to DMSO controls),BRK,24.16%
same,% Enzyme Activity (relative to DMSO controls),BRSK2,1.53%
same,% Enzyme Activity (relative to DMSO controls),CDK16/cyclin Y (PCTAIRE),76.42%
same,% Enzyme Activity (relative to DMSO controls),CDK6/cyclin D3,54.89%
same,% Enzyme Activity (relative to DMSO controls),DDR2,1.45%
same,% Enzyme Activity (relative to DMSO controls),EGFR,16.47%
same,% Enzyme Activity (relative to DMSO controls),EPHA1,30.84%
same,% Enzyme Activity (relative to DMSO controls),ERK7/MAPK15,27.60%
same,% Enzyme Activity (relative to DMSO controls),GSK3b,2.83%
same,% Enzyme Activity (relative to DMSO controls),IKKa/CHUK,30.89%
same,% Enzyme Activity (relative to DMSO controls),IKKb/IKBKB,31.51%
same,% Enzyme Activity (relative to DMSO controls),IRAK1,3.16%
same,% Enzyme Activity (relative to DMSO controls),LCK,2.99%
same,% Enzyme Activity (relative to DMSO controls),LCK2/ICK,4.44%
same,% Enzyme Activity (relative to DMSO controls),MAPKAPK5/PRAK,84.10%
same,% Enzyme Activity (relative to DMSO controls),MARK2/PAR-1Ba,2.21%
same,% Enzyme Activity (relative to DMSO controls),MINK/MINK1,-1.70% and -1.95%
same,% Enzyme Activity (relative to DMSO controls),MKK7,94.42%
same,% Enzyme Activity (relative to DMSO controls),MLCK/MYLK,14.41%
same,% Enzyme Activity (relative to DMSO controls),MRCKa/CDC42BPA,68.39%
same,% Enzyme Activity (relative to DMSO controls),NEK1,5.78%
same,% Enzyme Activity (relative to DMSO controls),PAK5,7.41%
same,% Enzyme Activity (relative to DMSO controls),PASK,40.24%
same,% Enzyme Activity (relative to DMSO controls),PKCepsilon,0.77%
same,% Enzyme Activity (relative to DMSO controls),PKG1a,6.41%
same,% Enzyme Activity (relative to DMSO controls),PKG2/PRKG2,1.33%
same,% Enzyme Activity (relative to DMSO controls),PLK4/SAK,6.38%
same,% Enzyme Activity (relative to DMSO controls),RIPK2,40.54%
same,% Enzyme Activity (relative to DMSO controls),ROS/ROS1,4.19%
same,% Enzyme Activity (relative to DMSO controls),SRMS,90.39%
same,% Enzyme Activity (relative to DMSO controls),STK33,8.22%
same,% Enzyme Activity (relative to DMSO controls),TESK2,89.59%
same,% Enzyme Activity (relative to DMSO controls),TIE2/TEK,7.23%
same,% Enzyme Activity (relative to DMSO controls),VRK1,79.87%
same,% Enzyme Activity (relative to DMSO controls),YSK4/MAP3K19,3.38%
same,% Enzyme Activity (relative to DMSO controls),AMPK (A1/B2/G3),1.09%
same,% Enzyme Activity (relative to DMSO controls),AMPK (A2/B1/G3),0.59%
same,% Enzyme Activity (relative to DMSO controls),AMPK(A1/B2/G1),0.57%
same,% Enzyme Activity (relative to DMSO controls),PDK2/PDHK2,93.95%
same,% Enzyme Activity (relative to DMSO controls),PDK3/PDHK3,94.81%
same,% Enzyme Activity (relative to DMSO controls),CDK9/cyclin K [1],11.18%
same,remaining activity at 10 µM,CDK9/cyclin K [2],11.4%

# Several values for one entry are separate records, joined by “and”; a condition that tells them apart may be missing. Identical values can stand only once.
